# Experimental data taken from patent US4680304A, “Feed compositions containing 2-(α-pyridyl)-Δ^2 -heterocyclic compounds” (SmithKline Beckman Corporation, priority 1985, dated 1987).
# System: fermentation in the digestive tract (swine ileal/cecal inoculum)
# Test: In vitro swine procedure (fistula test; incubation of filtered ileal/cecal inoculum)
# Parameters: species or system swine (Yorkshire barrow)
# Details: 5 hours at 37°
Compound,LAC (L-lactic acid) (1.67 ppm),LAC (L-lactic acid) (16.67 ppm),GLU (glucose) (1.67 ppm),LYS (lysine) (1.67 ppm),GLU (glucose) (16.67 ppm),LYS (lysine) (166.67 ppm),VFA (total of volatile fatty acids) (166.67 ppm),"LAC (L-lactic acid) (entry (a), 166.7 ppm)"
Virginiamycin [reference compound],39 % of control values,21 % of control values,–,–,–,–,–,–
"COC(=O)C1(C)NN=C(c2ccccn2)N1 (stereo not drawn) [Methyl 5-methyl-3-(2'-pyridyl)-4,5-dihydro-1H-triazole-5-carboxylate]",105 % of control values,102 % of control values,112 % of control values,47 % of control values,102 % of control values,81 % of control values,95 % of control values,–
"CC1(O)CC(C(N)=O)N=C1c1ncccc1O (stereo not drawn) [3,4-dihydro-4-hydroxy-5-(3-hydroxy-2-pyridinyl)-4-methyl-2H-pyrrole-2-carboxamide]",–,–,97 % of control values,–,100 % of control values,–,–,162 % of control values
